This is an account of results in PubChem BioAssay (NCI).

Only a part is listed here, and it is no random draw. More than one record can exist for a structure, and the calls need not agree. Calls of active or inactive are those of the source. Rule as the data show it: active = growth inhibition above about 70%; inactive = the rest.

Experiment [1] in a line: NCI Yeast Anticancer Drug Screen. Data for the rad50 strain (AID 155).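 Also: 0% = growth of vehicle-only cultures of the same strain.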 Particulars: S. cerevisiae rad50 strain growth inhibition, hits give high values.
The nature of experiment [2]: NCI Yeast Anticancer Drug Screen. Data for the mec2-1 strain (AID 157). Particulars: S. cerevisiae mec2-1 strain, hits give high values.
Experiment [3] in a line: NCI Yeast Anticancer Drug Screen. Data for the sgs1 mgt1 strain (AID 161).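 Also: 0% = growth of cultures given vehicle only.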 As to conditions: S. cerevisiae sgs1 mgt1 strain, hits give high values.
Experiment [4] in a line: NCI Yeast Anticancer Drug Screen. Data for the cln2 rad14 strain (AID 165).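 Also: 0% = growth equal to vehicle treated cultures.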 Particulars: S. cerevisiae cln2 rad14 strain, hits give high values.
Experiment [5] in a line: NCI Yeast Anticancer Drug Screen. Data for the bub3 strain (AID 167). Particulars: S. cerevisiae bub3 mutant strain, hits give high values.
Experiment [6] can be described thus: NCI Yeast Anticancer Drug Screen. Data for the mlh1 rad18 strain (AID 175). Particulars: S. cerevisiae mlh1 rad18 strain growth inhibition, hits give high values.
[7] abbreviates: at 5.0 µM (retest, dose inferred, filed as 0.5).
The mark [8] stands for this setting: at 50.0 µM (retest, dose inferred, filed as 5.0).

Take `O=[As]c1ccc(F)cc1` (stereo not given): the growth inhibition in experiment [1] (setting [7]) was inactive: 36%; in experiment [1] (setting [8]), active: 99%; in experiment [1] (at 50.0 µM), active: 99.2%; in experiment [2] (setting [7]), inactive: 24%; in experiment [2] (setting [8]), active: 100%; in experiment [2] (at 50.0 µM), active: 99.5%. Moreover, the growth inhibition in experiment [3] (setting [7]) is inactive: 21%; in experiment [3] (setting [8]), active: 99%; in experiment [3] (at 50.0 µM), active: 99.6%; in experiment [4] (setting [7]) it was inactive: 12%; in experiment [4] (setting [8]), active: 100%; in experiment [4] (at 50.0 µM), active: 99%. The growth inhibition in experiment [5] (setting [7]) is inactive: 53%; in experiment [5] (setting [8]), active: 99%; in experiment [5] (at 50.0 µM), active: 99.1%; in experiment [6] (setting [7]), inactive: 22%; in experiment [6] (setting [8]), active: 99%; in experiment [6] (at 50.0 µM), active: 99%.

On to `C[N+]1(CCCCCC[N+]2(C)CCCCCCC2)CCCCCCC1`, for which the growth inhibition in experiment [1] (setting [7]) was inactive: -12%; in experiment [1] (setting [8]), inactive: -5%; in experiment [1] (at 50.0 µM) it was active: 97.4%; in experiment [2] (setting [7]), inactive: -5%; in experiment [2] (setting [8]) it was inactive: -2%; in experiment [2] (at 50.0 µM), active: 97.5%. The growth inhibition in experiment [3] (setting [7]) was inactive: 1%; in experiment [3] (setting [8]) it was inactive: 6%; in experiment [3] (at 50.0 µM) it was active: 97.2%; in experiment [4] (setting [7]), inactive: -4%; in experiment [4] (setting [8]), inactive: -8%; in experiment [4] (at 50.0 µM), active: 97.4%. Moreover, the growth inhibition in experiment [5] (setting [7]) is inactive: 12%; in experiment [5] (setting [8]) it was inactive: -6%; in experiment [5] (at 50.0 µM), active: 97%; in experiment [6] (setting [7]) it was inactive: -12%; in experiment [6] (setting [8]) it was inactive: 20%; in experiment [6] (at 50.0 µM), active: 97%.

For the molecule `O=[N+]([O-])C(/C=C(/Cl)[N+](=O)[O-])=C(Cl)Cl`, the growth inhibition is inactive: 13% in experiment [1] (setting [7]); active: 99% in experiment [1] (setting [8]); active: 87.3% in experiment [1] (at 50.0 µM); inactive: 15% in experiment [2] (setting [7]); active: 100% in experiment [2] (setting [8]); active: 87.7% in experiment [2] (at 50.0 µM). The growth inhibition in experiment [3] (setting [7]) was inactive: -8%; in experiment [3] (setting [8]), active: 99%; in experiment [3] (at 50.0 µM), active: 89.5%; in experiment [4] (setting [7]), inactive: -7%; in experiment [4] (setting [8]) it was active: 99%; in experiment [4] (at 50.0 µM), active: 89.3%. Also, the growth inhibition in experiment [5] (setting [7]) was inactive: -18%; in experiment [5] (setting [8]), active: 100%; in experiment [5] (at 50.0 µM), active: 91.7%; in experiment [6] (setting [7]) it was inactive: -13%; in experiment [6] (setting [8]) it was active: 99%; in experiment [6] (at 50.0 µM), active: 85.4%.

As for `ClCCN(Cc1ccc(Cl)cc1)Cc1ccc(Cl)cc1`, the growth inhibition in experiment [1] (setting [7]) was inactive: 14%; in experiment [1] (setting [8]), active: 97%; in experiment [1] (at 50.0 µM), active: 97.7%; in experiment [2] (setting [7]), inactive: 9%; in experiment [2] (setting [8]) it was active: 98%; in experiment [2] (at 50.0 µM) it was active: 96.5%. Besides, the growth inhibition is inactive: 17% in experiment [3] (setting [7]); active: 98% in experiment [3] (setting [8]); active: 98.5% in experiment [3] (at 50.0 µM); inactive: 9% in experiment [4] (setting [7]); active: 98% in experiment [4] (setting [8]); active: 97.9% in experiment [4] (at 50.0 µM). Also, the growth inhibition in experiment [5] (setting [7]) was inactive: 11%; in experiment [5] (setting [8]) it was active: 97%; in experiment [5] (at 50.0 µM) it was active: 98.5%; in experiment [6] (setting [7]), inactive: 31%; in experiment [6] (setting [8]), active: 97%; in experiment [6] (at 50.0 µM) it was active: 98%.

`CCN1CCN(CCCl)CC1`: the growth inhibition was inactive: -4% in experiment [1] (setting [7]); inactive: 4% in experiment [1] (setting [8]); inactive: 67.8% in experiment [1] (at 50.0 µM); inactive: 4% in experiment [2] (setting [7]); inactive: -2% in experiment [2] (setting [8]); active: 77.4% in experiment [2] (at 50.0 µM). For the same molecule, the growth inhibition is inactive: 0% in experiment [3] (setting [7]); inactive: 2% in experiment [3] (setting [8]); active: 80.5% in experiment [3] (at 50.0 µM); inactive: 5% in experiment [4] (setting [7]); inactive: -10% in experiment [4] (setting [8]); active: 78.8% in experiment [4] (at 50.0 µM). Besides, the growth inhibition in experiment [5] (setting [7]) was inactive: 3%; in experiment [5] (setting [8]), inactive: -4%; in experiment [5] (at 50.0 µM) it was inactive: 7.35%; in experiment [6] (setting [7]), inactive: -4%; in experiment [6] (setting [8]), inactive: 8%; in experiment [6] (at 50.0 µM) it was active: 92.8%.
